{
  "sequences": {"note": "By UniProt entry, the sequences of proteins in these tests, tags left out. Where a name states a change or a piece, a line headed by the entry shows the natural chain unless it says otherwise.", "UniProt P05193": "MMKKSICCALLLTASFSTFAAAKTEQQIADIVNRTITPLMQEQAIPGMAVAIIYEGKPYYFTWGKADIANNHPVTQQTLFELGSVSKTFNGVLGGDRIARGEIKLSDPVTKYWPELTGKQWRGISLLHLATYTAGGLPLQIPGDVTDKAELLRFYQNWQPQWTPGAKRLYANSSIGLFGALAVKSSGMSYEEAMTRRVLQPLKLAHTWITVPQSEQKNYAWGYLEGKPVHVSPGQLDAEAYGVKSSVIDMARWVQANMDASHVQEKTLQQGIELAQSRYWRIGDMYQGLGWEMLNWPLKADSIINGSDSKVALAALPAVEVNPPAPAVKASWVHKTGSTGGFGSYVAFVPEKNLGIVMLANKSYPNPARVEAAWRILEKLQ", "UniProt P05364, whole entry": "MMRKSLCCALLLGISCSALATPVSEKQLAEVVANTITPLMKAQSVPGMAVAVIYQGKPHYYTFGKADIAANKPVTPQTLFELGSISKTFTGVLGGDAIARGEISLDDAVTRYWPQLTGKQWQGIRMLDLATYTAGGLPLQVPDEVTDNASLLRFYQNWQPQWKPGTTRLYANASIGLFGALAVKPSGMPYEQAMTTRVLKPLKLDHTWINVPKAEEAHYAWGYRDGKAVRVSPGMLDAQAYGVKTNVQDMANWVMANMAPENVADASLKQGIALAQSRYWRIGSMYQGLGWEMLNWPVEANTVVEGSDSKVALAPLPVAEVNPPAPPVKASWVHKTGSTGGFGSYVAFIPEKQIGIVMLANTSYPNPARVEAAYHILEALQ", "UniProt P62593, whole entry": "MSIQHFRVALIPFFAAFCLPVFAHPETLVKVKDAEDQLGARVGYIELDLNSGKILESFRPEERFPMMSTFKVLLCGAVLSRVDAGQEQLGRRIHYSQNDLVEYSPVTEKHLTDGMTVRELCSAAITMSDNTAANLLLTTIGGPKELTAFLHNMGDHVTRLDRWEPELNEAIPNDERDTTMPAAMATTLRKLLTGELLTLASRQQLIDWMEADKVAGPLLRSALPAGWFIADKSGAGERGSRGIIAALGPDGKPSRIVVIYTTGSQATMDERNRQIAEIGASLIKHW", "UniProt P24735": "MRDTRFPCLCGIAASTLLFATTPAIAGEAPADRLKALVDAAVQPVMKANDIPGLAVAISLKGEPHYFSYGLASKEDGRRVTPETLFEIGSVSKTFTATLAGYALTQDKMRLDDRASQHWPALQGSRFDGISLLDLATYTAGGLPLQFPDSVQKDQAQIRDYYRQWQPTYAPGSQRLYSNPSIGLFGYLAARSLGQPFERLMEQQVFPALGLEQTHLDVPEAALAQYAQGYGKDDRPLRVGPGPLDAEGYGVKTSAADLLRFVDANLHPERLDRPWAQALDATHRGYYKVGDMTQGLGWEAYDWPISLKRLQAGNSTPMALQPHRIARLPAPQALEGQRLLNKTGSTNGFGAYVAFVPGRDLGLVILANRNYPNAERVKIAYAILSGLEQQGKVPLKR"},
  "source": "ChEMBL document CHEMBL1129642",
  "about": "“Design, synthesis, and evaluation of 2 beta-alkenyl penam sulfone acids as inhibitors of beta-lactamases” (J Med Chem, 1996)",
  "key": {"Beta-lactamase [1]": {"target": "Beta-lactamase (Citrobacter freundii, UniProt P05193)", "assay": "Compound was tested for inhibition of Citrobacter freundii 1928, class C of Beta-lactamase"}, "[2]": {"target": "T1, Penicillin-binding protein 4 (Staphylococcus aureus, UniProt P72355)", "T1 sequence (P72355 whole entry)": "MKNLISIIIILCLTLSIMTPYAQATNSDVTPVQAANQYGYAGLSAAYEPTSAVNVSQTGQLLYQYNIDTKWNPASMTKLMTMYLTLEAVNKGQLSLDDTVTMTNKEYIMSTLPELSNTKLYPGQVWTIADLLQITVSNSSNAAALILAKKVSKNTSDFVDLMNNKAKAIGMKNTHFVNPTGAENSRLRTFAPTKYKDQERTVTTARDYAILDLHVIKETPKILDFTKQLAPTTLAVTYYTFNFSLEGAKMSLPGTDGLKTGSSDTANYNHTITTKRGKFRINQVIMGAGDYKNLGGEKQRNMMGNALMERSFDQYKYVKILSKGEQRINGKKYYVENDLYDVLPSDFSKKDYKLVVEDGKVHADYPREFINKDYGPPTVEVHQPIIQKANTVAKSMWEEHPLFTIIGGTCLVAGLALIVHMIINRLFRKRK", "assay": "Compound was tested for inhibition of Penicillin-binding protein 4 from Staphylococcus aureus (Schoch).", "procedure,_shortened": "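Staphylococcus aureus Schoch membrane fragments served as the PBP source. Penicillin binding was measured with 14C-labeled benzylpenicillin, and inhibition of binding to the individual PBP is reported as IC50 in µM.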"}, "[3]": {"assay": "Compound was tested for inhibition of TEM-3, class A of beta-lactamases.", "type": "functional, Escherichia coli"}, "[4]": {"assay": "Compound was tested for inhibition of pTEM-3 from Escherichia coli in combination with Ceftriaxone (expressed in MIC).", "type": "functional", "procedure,_shortened": "(§1)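 MICs determined by serial 2-fold dilution in Mueller-Hinton broth with an inoculum of approximately 10⁵ cfu/mL. The test compound was combined with ceftriaxone.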"}, "[5]": {"assay": "Compound was tested for inhibition of TEM-1, class A of beta-lactamases.", "type": "functional, Escherichia coli"}, "Beta-lactamase [6]": {"target": "T2, Beta-lactamase (Enterobacter cloacae, UniProt P05364)", "assay": "Compound was tested for inhibition of Beta-lactamase from Escherichia coli SN03"}, "Beta-lactamase [7]": {"target": "T2, Beta-lactamase", "assay": "Compound was tested for inhibition of Beta-lactamase from Ent. cloacae 6300"}, "Beta-lactamase TEM": {"target": "Beta-lactamase TEM (Escherichia coli, UniProt P62593)", "assay": "Compound was tested for inhibition of Beta-lactamase from RTEM-3"}, "Beta-lactamase [8]": {"target": "Beta-lactamase (Pseudomonas aeruginosa (strain ATCC 15692 / PAO1 / 1C / PRS 101 / LMG12228), UniProt P24735)", "assay": "Compound was tested for inhibition of Beta-lactamase from Pseudomonas aeruginosa 18SH"}, "[9]": {"target": "T3, Penicillin-binding protein 2 (Staphylococcus aureus, UniProt Q53729)", "T3 sequence (Q53729 whole entry)": "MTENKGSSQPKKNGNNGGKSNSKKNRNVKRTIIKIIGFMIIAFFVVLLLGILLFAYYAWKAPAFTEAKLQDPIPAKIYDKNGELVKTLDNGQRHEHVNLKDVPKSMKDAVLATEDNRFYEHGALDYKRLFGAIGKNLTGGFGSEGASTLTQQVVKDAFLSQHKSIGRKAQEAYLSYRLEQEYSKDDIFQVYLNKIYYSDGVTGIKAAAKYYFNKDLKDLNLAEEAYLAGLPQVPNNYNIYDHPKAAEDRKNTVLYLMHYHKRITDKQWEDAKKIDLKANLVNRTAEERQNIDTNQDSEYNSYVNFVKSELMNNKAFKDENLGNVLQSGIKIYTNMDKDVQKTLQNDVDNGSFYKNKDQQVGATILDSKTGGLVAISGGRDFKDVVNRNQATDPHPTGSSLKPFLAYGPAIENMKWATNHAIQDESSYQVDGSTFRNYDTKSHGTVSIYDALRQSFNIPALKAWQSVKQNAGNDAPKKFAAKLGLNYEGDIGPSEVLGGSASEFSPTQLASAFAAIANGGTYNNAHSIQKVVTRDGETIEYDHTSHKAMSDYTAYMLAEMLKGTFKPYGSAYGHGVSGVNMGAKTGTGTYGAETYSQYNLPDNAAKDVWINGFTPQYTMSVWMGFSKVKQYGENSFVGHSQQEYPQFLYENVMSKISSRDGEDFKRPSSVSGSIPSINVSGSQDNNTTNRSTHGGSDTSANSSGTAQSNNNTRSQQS", "assay": "Compound was tested for inhibition of Penicillin-binding protein 2 from Staphylococcus aureus (Schoch)."}, "[10]": {"target": "T4, Peptidoglycan D,D-transpeptidase MrdA (Escherichia coli K-12, UniProt P0AD65)", "T4 sequence (P0AD65 whole entry)": "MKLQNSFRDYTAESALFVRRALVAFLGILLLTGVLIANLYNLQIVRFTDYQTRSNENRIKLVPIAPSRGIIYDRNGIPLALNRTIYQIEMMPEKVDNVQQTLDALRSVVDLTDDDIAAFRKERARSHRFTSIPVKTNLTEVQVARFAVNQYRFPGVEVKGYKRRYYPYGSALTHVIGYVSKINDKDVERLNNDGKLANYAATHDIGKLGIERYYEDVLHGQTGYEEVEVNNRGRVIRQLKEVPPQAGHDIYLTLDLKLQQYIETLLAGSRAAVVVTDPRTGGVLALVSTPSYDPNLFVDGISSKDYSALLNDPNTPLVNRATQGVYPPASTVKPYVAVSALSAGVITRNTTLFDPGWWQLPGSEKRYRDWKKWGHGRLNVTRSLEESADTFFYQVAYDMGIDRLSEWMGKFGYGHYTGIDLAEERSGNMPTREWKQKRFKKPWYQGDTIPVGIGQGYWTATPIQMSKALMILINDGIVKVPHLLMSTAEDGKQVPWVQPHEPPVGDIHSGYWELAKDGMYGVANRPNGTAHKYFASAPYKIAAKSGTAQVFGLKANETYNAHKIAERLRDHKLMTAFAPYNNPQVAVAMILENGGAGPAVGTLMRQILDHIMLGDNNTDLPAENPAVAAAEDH", "assay": "Compound was tested for inhibition of Penicillin-binding protein 2 from Escherichia coli."}, "[11]": {"assay": "Compound was tested for inhibition of 1b Penicillin-binding protein from Escherichia coli."}, "[12]": {"assay": "Compound was tested for inhibition of Penicillin-binding protein 1 from Staphylococcus aureus (Schoch).", "set-up": "species or system Streptococcus pneumoniae"}, "[13]": {"assay": "Compound was tested for inhibition of pTEM-4 from Escherichia coli in combination with Ceftriaxone (not active).", "type": "functional", "procedure,_shortened": "as §1"}},
  "data": [
    {"smiles": "CCOC(=O)/C=C\\[C@@]1(C)[C@H](C(=O)O)N2C(=O)C[C@H]2S1(=O)=O", "values": [
      {"measurement": "IC50", "setting": "Beta-lactamase [1]", "result": 370, "unit": "nM"}
    ]},
    {"smiles": "C[C@]1(/C=C\\c2cncs2)[C@H](C(=O)[O-])N2C(=O)C[C@H]2S1(=O)=O.[Na+]", "values": [
      {"measurement": "IC50", "setting": "[2]", "result": 14000, "unit": "nM"}
    ]},
    {"smiles": "C[C@]1(/C=C\\C#N)[C@H](C(=O)O)N2C(=O)C[C@H]2S1(=O)=O", "values": [
      {"measurement": "IC50", "setting": "[3]", "result": 690, "unit": "nM"},
      {"measurement": "MIC", "setting": "[4]", "result": "< 0.25", "unit": "µg/mL"},
      {"measurement": "IC50", "setting": "[5]", "result": 1300, "unit": "nM"}
    ]},
    {"smiles": "C[C@]1(/C=C/c2cncs2)[C@H](C(=O)O)N2C(=O)C[C@H]2S1(=O)=O", "values": [
      {"measurement": "IC50", "setting": "[2]", "result": 143000, "unit": "nM"}
    ]},
    {"smiles": "C[C@]1(C=CC#N)[C@H](C(=O)O)N2C(=O)C[C@H]2S1(=O)=O", "note": "[Ro-481220]", "values": [
      {"measurement": "IC50", "setting": "Beta-lactamase [6]", "result": 1510, "unit": "nM"},
      {"measurement": "IC50", "setting": "Beta-lactamase [7]", "result": 3400, "unit": "nM"},
      {"measurement": "IC50", "setting": "Beta-lactamase TEM", "result": 130, "unit": "nM"},
      {"measurement": "IC50", "setting": "Beta-lactamase [8]", "result": 380, "unit": "nM"},
      {"measurement": "IC50", "setting": "[9]", "result": 17000, "unit": "nM"},
      {"measurement": "IC50", "setting": "[10]", "result": 34000, "unit": "nM"},
      {"measurement": "IC50", "setting": "[11]", "result": 340000, "unit": "nM"},
      {"measurement": "IC50", "setting": "[12]", "result": 200000, "unit": "nM"},
      {"measurement": "MIC", "setting": "[4]", "result": "< 0.25", "unit": "µg/mL"},
      {"measurement": "MIC", "setting": "[13]", "result": 1, "unit": "µg/mL"},
      {"measurement": "IC50", "setting": "[5]", "result": 1100, "unit": "nM"}
    ]}
  ]
}
